Series [1] is described as follows: Half life in ICR mouse at 10 mg/kg, po measured upto 24 hrs by LC-MS/MS analysis. The note with it: in vivo.
Series [2] is described as follows: MRT in ICR mouse at 10 mg/kg, po measured upto 24 hrs by LC-MS/MS analysis. The note with it: in vivo.
Series [3] in a line: Half life in ICR mouse at 2 mg/kg, iv measured upto 24 hrs by LC-MS/MS analysis. Particulars: in vivo.
Series [4] in a line: AUCt in ICR mouse at 2 mg/kg, iv measured upto 24 hrs by LC-MS/MS analysis. Particulars: in vivo.
A short description of series [5]: Clearance in ICR mouse at 2 mg/kg, iv measured upto 24 hrs by LC-MS/MS analysis. Particulars: in vivo.
The nature of series [6]: MRT in ICR mouse at 2 mg/kg, iv measured upto 24 hrs by LC-MS/MS analysis. The note with it: in vivo.
Series [7] in a line: Volume of distribution at steady state in ICR mouse at 2 mg/kg measured upto 24 hrs by LC-MS/MS analysis. The note with it: in vivo, iv.
The nature of series [8]: Metabolic stability in rat liver microsomes assessed as half life.
Series [9] in a line: Metabolic stability in human liver microsomes assessed as half life. (In general: Liver microsomes are vesicles of endoplasmic reticulum, rich in cytochrome P450 enzymes.)
Series [10] can be described thus: Metabolic stability in rat liver microsomes assessed as intrinsic clearance.
Series [11] is described as follows: Metabolic stability in human liver microsomes assessed as intrinsic clearance.
Series [12] can be described thus: Metabolic stability in rat liver microsomes assessed as apparent intrinsic clearance.
A short description of series [13]: Metabolic stability in human liver microsomes assessed as apparent intrinsic clearance.
Series [14] in a line: Metabolic stability in rat liver microsomes assessed as hepatic clearance.
Series [15] in a line: Metabolic stability in human liver microsomes assessed as hepatic clearance.
Series [16] is described as follows: in vivo. Particulars: ICR, mouse, po, 10 mg/kg.
Series [17] in a line: in vivo. Particulars: ICR, mouse, po, 10 mg/kg. The source holds these as a separate data set.
The nature of series [18]: in vivo. Particulars: ICR, mouse, po, 10 mg/kg. The source holds these as a separate data set.
Series [19] is described as follows: in vivo. Particulars: ICR, mouse, po, 10 mg/kg. The source holds these as a separate data set.

As a reminder, the half-life is the time needed for the level to fall by half in the phase considered. What is called MRT is the average time that molecules of a dose stay in the body. As a reminder, the AUC(0-t) is exposure summed from dosing to a finite time, without extrapolation to infinity. The term clearance denotes the rate of elimination divided by the concentration. A higher clearance goes with efficient removal. As usually defined, the Vd is a proportionality between amount in the body and measured concentration, not a real space. A low value points to confinement near the circulation. As a reminder, the CLint scaled is the rate of metabolic loss divided by the concentration. For orientation: Tmax means the time from dosing to the highest level. As usually defined, the Cmax is the peak of the concentration-time curve. By bioavailability is commonly meant the share of a dose that reaches the circulation, judged against a reference dose that is usually intravenous.

Each structure is given as a SMILES string.

With `C[C@@H]1Cc2nc(NCc3ccc(Br)cc3)[nH]c(=O)c2CN1Cc1cccc(C#N)c1`, the half-life at 24 h was 3.73 h in [1] and 2.11 h in series [3]. Moreover, the MRT at 24 h turned out to be 3.78 h in series [2] and 1.62 h in [6]. The AUC(0-t) at 24 h in series [4] came out at 1290 ng·h/mL; in series [18], 3410 ng·h/mL. The compound also registered a clearance at 24 h in series [5] of 25.9 mL/min/kg. The Vd at 24 h in series [7] came out at 2.5 L/kg. For the same compound, the half-life in series [8] is 10.1 h; in [9] it was 26.9 h. In addition, the CLint scaled in series [10] stood at 344 mL/min/kg; in series [11] it was 129 mL/min/kg; in series [12], 620 mL/min/kg; in [13] it was 151 mL/min/kg. The CLhep predicted in series [14] is 50.7 mL/min/kg; in [15] it was 18.2 mL/min/kg. Further, the Tmax at 24 h in series [16] was 0.5 h. Further, the highest level in series [17] (Cmax at 24 h) was 1030 ng/mL. This compound also registered a bioavailability at 24 h in series [19] of 52.8%.
